Data as given in US20090299063A1, “Inhibitors for Extracellular Signal-Regulated Kinase Docking Domains and Uses Therefor” (priority 2005, published 2009).

Key:
HeLa cells = experiment: Colony formation assay, HeLa cells
[1] = system: A549 lung carcinoma cells; experiment: Colony formation assay, A549 cells
[2] = system: HT1080 fibrosarcoma cells; experiment: Cell proliferation, HT1080 cells
MDA-MB-468 cells = experiment: Cell proliferation, MDA-MB-468 cells

- IC50 of cell proliferation (in words) (HeLa cells): IC50 values similar to 76 and 81
- IC50 of cell proliferation (in words) [1]: IC50 values similar to 76 and 81
- IC50 of cell proliferation (in words) [2]: IC50 values similar to 76 and 81
- IC50 of cell proliferation (in words) (MDA-MB-468 cells): IC50 values similar to 76 and 81
SMILES: O=C(CSc1nc2ccccc2o1)Nc1ccc(-n2cnnn2)cc1
